## Ab-14 heavy chain CDR variants: yeast mating affinities

Binding partner: SARS-CoV-2 spike HR2 peptide, sequence PDVDLGDISGINAS.

Ab-14 is the parent antibody, in scFv form: VH, then a (GGGGS)3 linker, then VL. The light chain is unchanged in all variants.
VH: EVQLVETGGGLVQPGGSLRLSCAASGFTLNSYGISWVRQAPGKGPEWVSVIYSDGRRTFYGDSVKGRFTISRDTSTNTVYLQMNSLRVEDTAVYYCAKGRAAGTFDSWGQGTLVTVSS
VL: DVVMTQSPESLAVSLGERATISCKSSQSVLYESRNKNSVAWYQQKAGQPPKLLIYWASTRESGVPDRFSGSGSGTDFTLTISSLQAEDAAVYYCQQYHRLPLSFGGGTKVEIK

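The starting antibody came from a phage panning campaign against this peptide. The variants were designed computationally from a first round of random CDR variants and then made and measured. Several design methods are mixed in this list. The assay is AlphaSeq: two haploid yeast populations carry antibody and antigen on their surface. The frequency of each diploid, read from paired DNA barcodes, reflects how well the two displayed proteins bind. A regression on co-assayed BCL2-family reference pairs converts the normalised counts of each replicate to an apparent Kd. There are six technical replicates.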

The parent's heavy chain CDRs are GFTLNSYGIS, VIYSDGRRTFYGDSVK, GRAAGTFDS; each variant's own CDRs replace them letter for letter.
Each Kd is an estimate from the mating assay, the geometric mean of the replicates in which the pair was seen; lower is stronger.
Where no diploid with the target was found in any replicate, the entry reads "no signal": below detection, most likely a poor binder, though not proof of it.
The list is sorted by this average, lowest first, undetected variants last.
Values of this round are not directly comparable with the first-round values of the same sequences.
Of ten entries with the parent sequence, four were seen in most replicates (averages 2.2 nM to 240 nM), three in one and three in none, so single entries are noisy.
Background: pairings of all heavy chain designs with three empty control strains gave a value in 1% of cases (median 120 nM, 5th percentile 7.0 nM). Values in that range, when seen in few replicates, are hard to tell from nonspecific mating.
The authors averaged sequences with at least three values out of six and counted those with two or fewer as poor binders.

CDR-H1	CDR-H2	CDR-H3	apparent Kd	detected
GFSLNSYGIS	VIYSDGRRTFYKDSVK	GRTAGTFDA	140 pM	5 of 6
GFNLEDYGIS	VIYADGRRTAYADSVK	GEVAGTFDV	230 pM	6 of 6
GFDLNEYGIS	VIYADGKRTFYADSVK	GQTAGTFDV	260 pM	6 of 6
GFDLDEYGIS	VIYADGKRTVYADSVK	GQNAGTFDV	260 pM	6 of 6
GFDLNEYGIS	VIYADGQRTAYSDSVK	GQVAGTFDV	270 pM	6 of 6
GFDLNEYGIS	VIYADGVRTFYADSVK	GEVAGTFDT	270 pM	6 of 6
GFDLNEYGIS	VIYADGKRTYYADSVK	GNVAGTFDI	280 pM	6 of 6
GFDLNEYGIS	VIYADGVRTAYADSVK	GVNAGTFDV	370 pM	6 of 6
GFDINEYGIS	VIYADGRRTFYADSVK	GNVAGTFDL	400 pM	6 of 6
GFDLNEYGIS	VIYADGRRTFYADSVK	GNIAGTFNV	430 pM	6 of 6
GFSLNSYGIS	VIYSDGRRTFYQDSVK	GEAAGTFDA	440 pM	6 of 6
GFDLNEYGIS	VIYADGRRTAYSDSVK	GNVAGTFDI	440 pM	6 of 6
GFTLNEYGIS	VIYSDGRRTFYTDSVK	GRFAGTFDV	560 pM	1 of 6
GFNLNEYGIS	VIYADGVRKFYADSVK	GNTAGTFDV	570 pM	6 of 6
GMTLNEYGIS	VIYSDGRRTFYTDSVK	GRFAGTFDS	620 pM	6 of 6
GFTLDSYGIS	VIYADGRRTFYGDSVK	GRLAGTFDS	660 pM	6 of 6
GFDLNEYGIS	VIYADGRRTFYADSVK	GEIGGTFDS	690 pM	6 of 6
GFDLNEYGIS	VIYADGRRQFYADKVK	GENAGTFNV	820 pM	5 of 6
GFDLDEYGIS	VIYADGMRTSYADSVK	GEVAGTFDL	830 pM	6 of 6
GMDLQEFGIS	VIYADGVREYYKDDFK	GQIAGTFDD	830 pM	6 of 6
GFDLNEYGIS	VIYADGRRTFYADSVK	GNAAGTFDE	860 pM	6 of 6
GFDLNSYGIS	VIYSDGRRTFYGDQVK	GKTAGTFDA	970 pM	6 of 6
GFSLNSYGIS	VIYSDGRRTFYADSVK	GQTAGTFDA	980 pM	6 of 6
GFDLDEYGIS	VIYADGMRTAYTDSVK	GNQAGTFDL	1.1 nM	6 of 6
GFDLDEYGIS	VIYADGMRTFYTDSVK	GEIAGTFDA	1.4 nM	6 of 6
GFGLNEYGIS	VIYSDGRRTFYGDSVK	GRTAGTFDK	1.6 nM	6 of 6
GFTLNNYGIS	VIYSDGRRTFYSDSVK	GTAAGTFDS	1.8 nM	6 of 6
GFSLNNYGIS	VIYSDGRRTFYTDSVK	GQAAGTFDS	1.8 nM	6 of 6
GFSLNMYGIS	VIYSDGRRTQYADSVK	GRAAGTFDS	2.3 nM	6 of 6
GFDLNSYGIS	VIYSDGRRTFYIDSVK	GNAAGTFDK	2.4 nM	4 of 6
GFTLNEYGIS	VIYSDGRRTFYTDSVK	GRNAGTFIS	2.5 nM	6 of 6
GFQLNEYGIS	VIYSDGRRTFYGDSVK	GRTAGTFDR	2.8 nM	6 of 6
GFELNSYGIS	VIYADGRRTFYGDSVK	GHAAGTFDF	2.9 nM	6 of 6
GFTLDSYGIS	VIYSDGRRTFYTDSVK	GRLAGTFDS	3.0 nM	6 of 6
GFTLESYGIS	VIYSDGRRTFYADDVK	GSAAGTFDS	3.4 nM	5 of 6
GFDLNSYGIS	VIYSDGRRTFYHDSVK	GAAAGTFDS	3.5 nM	6 of 6
GFNLGEYGIS	VIYADGKRTAYSESVK	GNSAGTFNH	3.9 nM	6 of 6
GFTLNSYGIS	VIYSDGRRTFYTDSVK	GEFAGTFDS	3.9 nM	5 of 6
GFTLNSYGIS	VIYSDGRRTMYIDSVK	GQAAGTFDS	4.2 nM	2 of 6
GVTLNSYGIS	VIYSDGRRTFYADSVK	GRGAGTFDS	6.6 nM	6 of 6
GFSLNDYGIS	VIYSDGRRTFYGDSVK	GRAAGTFVS	8.7 nM	1 of 6
GFGLNEYGIS	VIYSDGRRTFYGDQVK	GRNAGTFDS	10 nM	6 of 6
GFSLNSYGIS	VIYSDGRRTFYVDDVK	GRLAGTFDS	16 nM	1 of 6
GFTLESYGIS	VIYSDGRRTFYHDSVK	GNAAGTFDS	17 nM	6 of 6
GFALNSYGIS	VIYSDGRRTFYEDSVK	GEAAGTFVV	37 nM	1 of 6
GFTLNDYGIS	VIYSDGRRTYYGDSVK	GRTAGTFIS	44 nM	1 of 6
GGDLNEYGIS	VIYADGNRKNYADNVK	GQNGDVLNI	45 nM	6 of 6
MFDLNSYGIS	VIYSDGRRTFYGDSVK	GRQAGTFDT	47 nM	5 of 6
KFSLNNYGIS	VIYSDGRRTFYGDSVK	GQAAGTFDS	150 nM	2 of 6
GFTLNSYGIS	VIYSDGRRTFYIDSVK	GRVAGTFWS	180 nM	4 of 6
GFTLNSYGIS	SIYSDGRRTFYGDSVK	GRWAGTFDS	290 nM	1 of 6
RFDLNSTGIS	VIYSDGRRTFYGDSVK	GRAAGWFNS	2.4 µM	2 of 6
GFNLDEYGIS	VIYADGMRTFVTEAVK	GSNADFVFA	no signal	0 of 6
GFVLNSYGIS	VIYSDGRRTFYADSVK	GKAAGTFDS	no signal	0 of 6
GFDLGEYGIS	VIYADGSRSAYAKNVK	GGSVYKDAV	no signal	0 of 6
GFSLDEYGIS	VIYADGVRTQYHDSVK	GTGGFDIEL	no signal	0 of 6
GFTLNSYGIS	VDYSDGRRTFYGDSVK	GRAAGMFDS	no signal	0 of 6
GFDIEEYGIS	VIYADGQRKSYINSFK	GQNNGIGMY	no signal	0 of 6
GFTLNSYWIS	VIYSDGRRTFYGDSVK	GRAALTFDS	no signal	0 of 6
GFTLSDYGIS	VIYSDGRRTFYGDSVK	GPSSATFDS	no signal	0 of 6
GFTLNSYGIS	VIYADLRRTFYGDSVK	GRAALTNKM	no signal	0 of 6
GFSLNQYGSS	VIYSDGRRTFYGDSVK	GRAACTFDS	no signal	0 of 6
GFTLLSYGIS	VIYSDGRRTFYGDSVK	GENSGTFDS	no signal	0 of 6
GFTLNEYGIS	VYYSDGRRTFYGDSVK	GRAAVTFDQ	no signal	0 of 6
GETLNSYGIS	VDYSDGRRTFYHDSVK	GRAAGTFDS	no signal	0 of 6
GFNLDDQGIS	VIYADGERTAYSDSVK	GHEGGIMNV	no signal	0 of 6
GFTLNSYGIS	VIYSDGRRTFYGDSVK	GRTKGTFDS	no signal	0 of 6
GFTWNEYGIS	VIYSDGRRTFKTCSVK	GRFAGTFDS	no signal	0 of 6
GFSLDEYGIS	VIYADGVRKHYADSVK	GNIIGYYFA	no signal	0 of 6
GFSLNMYGIS	VIYSDGRRTFYKDSVK	GRTAGTFDS	no signal	0 of 6
GFTLNEYGIT	VIYSDGRRTFYGDSVK	GRAAVTFDQ	no signal	0 of 6
GFTLNDYGIS	VIYSDGRRTFYGDSVK	GRAALTFIG	no signal	0 of 6

The first 9 variants above that were never detected:

{"CDR-H1": "GFNLDEYGIS", "CDR-H2": "VIYADGMRTFVTEAVK", "CDR-H3": "GSNADFVFA", "apparent Kd": "no signal", "detected": "0 of 6"}
{"CDR-H1": "GFVLNSYGIS", "CDR-H2": "VIYSDGRRTFYADSVK", "CDR-H3": "GKAAGTFDS", "apparent Kd": "no signal", "detected": "0 of 6"}
{"CDR-H1": "GFDLGEYGIS", "CDR-H2": "VIYADGSRSAYAKNVK", "CDR-H3": "GGSVYKDAV", "apparent Kd": "no signal", "detected": "0 of 6"}
{"CDR-H1": "GFSLDEYGIS", "CDR-H2": "VIYADGVRTQYHDSVK", "CDR-H3": "GTGGFDIEL", "apparent Kd": "no signal", "detected": "0 of 6"}
{"CDR-H1": "GFTLNSYGIS", "CDR-H2": "VDYSDGRRTFYGDSVK", "CDR-H3": "GRAAGMFDS", "apparent Kd": "no signal", "detected": "0 of 6"}
{"CDR-H1": "GFDIEEYGIS", "CDR-H2": "VIYADGQRKSYINSFK", "CDR-H3": "GQNNGIGMY", "apparent Kd": "no signal", "detected": "0 of 6"}
{"CDR-H1": "GFTLNSYWIS", "CDR-H2": "VIYSDGRRTFYGDSVK", "CDR-H3": "GRAALTFDS", "apparent Kd": "no signal", "detected": "0 of 6"}
{"CDR-H1": "GFTLSDYGIS", "CDR-H2": "VIYSDGRRTFYGDSVK", "CDR-H3": "GPSSATFDS", "apparent Kd": "no signal", "detected": "0 of 6"}
{"CDR-H1": "GFTLNSYGIS", "CDR-H2": "VIYADLRRTFYGDSVK", "CDR-H3": "GRAALTNKM", "apparent Kd": "no signal", "detected": "0 of 6"}

Source: Li et al. 2023 (doi:10.1038/s41467-023-39022-2), MIT Lincoln Laboratory and A-Alpha Bio; data file from the FLAb repository.